In patent US20100322919A1:

How the values were obtained:
[1] = molecular target: cancer-associated variant of IkBβ2 (Homo sapiens (Human)) (UniProt Q15653); test: flow cytometry on A-549 lung tumor cells, VB1-204 at 100 µg/mL
[2] = molecular target: cancer-associated variant of IkBβ2 (Homo sapiens (Human)) (UniProt Q15653); test: flow cytometry on Panc-1 pancreas tumor cells, VB1-204 at 100 µg/mL
[3] = molecular target: cancer-associated variant of IkBβ2 (Homo sapiens (Human)) (UniProt Q15653); test: flow cytometry on MB-231 breast tumor cells, VB1-204 at 100 µg/mL
[4] = molecular target: cancer-associated variant of IkBβ2 (Homo sapiens (Human)) (UniProt Q15653); test: flow cytometry on DU-145 prostate tumor cells, VB1-204 at 100 µg/mL
[5] = molecular target: cancer-associated variant of IkBβ2 (Homo sapiens (Human)) (UniProt Q15653); test: flow cytometry on Hep-G2 liver tumor cells, VB1-204 at 100 µg/mL
[6] = molecular target: cancer-associated variant of IkBβ2 (Homo sapiens (Human)) (UniProt Q15653); test: flow cytometry on MB-435S breast tumor cells, VB1-204 at 100 µg/mL
[7] = molecular target: cancer-associated variant of IkBβ2 (Homo sapiens (Human)) (UniProt Q15653); test: flow cytometry on CFPac-1 pancreas tumor cells, VB1-204 at 100 µg/mL
[8] = molecular target: cancer-associated variant of IkBβ2 (Homo sapiens (Human)) (UniProt Q15653); test: flow cytometry saturation curve on A-375 tumor cells, 2 hours, Lineweaver-Burk method
[9] = molecular target: cancer-associated variant of IkBβ2 (Homo sapiens (Human)) (UniProt Q15653); test: two color flow cytometry on C33A cervix cells, VB1-204 at 25 µg/mL, 2 hours at 4° C.
[10] = molecular target: cancer-associated variant of IkBβ2 (Homo sapiens (Human)) (UniProt Q15653); test: two color flow cytometry on DU-145 prostate cells, VB1-204 at 25 µg/mL, 2 hours at 4° C.
[11] = molecular target: cancer-associated variant of IkBβ2 (Homo sapiens (Human)) (UniProt Q15653); test: flow cytometry on SK-BR-3 breast tumor cells, VB1-204 at 100 µg/mL
[12] = molecular target: cancer-associated variant of IkBβ2 (Homo sapiens (Human)) (UniProt Q15653); test: flow cytometry on SK-OV-3 ovary tumor cells, VB1-204 at 100 µg/mL

An MF (mean-fold increase in median fluorescence over the control antibody) [1] of 16.3 fold, an MF (mean-fold increase in median fluorescence over the control antibody) [2] of 12.8 fold and an MF (mean-fold increase in median fluorescence over the control antibody) [3] of 54.2 fold were found for VB1-204 monoclonal antibody in this work. The MF (mean-fold increase in median fluorescence over the control antibody) [4] was 22.9 fold, the MF (mean-fold increase in median fluorescence over the control antibody) [5] was 29.4 fold and the MF (mean-fold increase in median fluorescence over the control antibody) [6] was 16.7 fold. For the same substance, the MF (mean-fold increase in median fluorescence over the control antibody) [7] was 57.7 fold, the Kd [8] was 5 nM and the percent of cells bound [9] was 92.5%. The percent of cells bound [10] was 96.8%, the MF (mean-fold increase in median fluorescence over the control antibody) [11] was 22.1 fold and the MF (mean-fold increase in median fluorescence over the control antibody) [12] was 13.3 fold.
